The values that follow are results of earlier work, collected in article PMC7849054.

Like-named read-outs stand apart in the source and are kept apart here.

The target in data set [1] is beta-endorphin (UniProt P01189). Briefly: dPLIMSTEX
The target is the same in data set [2]. Briefly: PLIMSTEX
Data set [3] deals with melittin (Apis mellifera) (UniProt P01501).
Data set [4] has the same target. The source holds these as a separate data set.

With Calmodulin (from UniProt P0DP23), the Kd with beta-endorphin [1] was 4900 nM; with beta-endorphin [2], 4500 nM; in data set [3], 3 nM; in data set [4], 4.6 nM.
